SMILES strings stand for the structures.

1 molecule from patent US6462178B1, “G protein” (Yong Hou Wong, priority 1999, dated 2002) can be followed below.

For this experiment, the target named is T1, melatonin Mel1c receptor (Xenopus laevis, UniProt P49219).
T1 construct: expressed in transfected cells; host or cells: COS-7
T1 sequence (P49219 1-420): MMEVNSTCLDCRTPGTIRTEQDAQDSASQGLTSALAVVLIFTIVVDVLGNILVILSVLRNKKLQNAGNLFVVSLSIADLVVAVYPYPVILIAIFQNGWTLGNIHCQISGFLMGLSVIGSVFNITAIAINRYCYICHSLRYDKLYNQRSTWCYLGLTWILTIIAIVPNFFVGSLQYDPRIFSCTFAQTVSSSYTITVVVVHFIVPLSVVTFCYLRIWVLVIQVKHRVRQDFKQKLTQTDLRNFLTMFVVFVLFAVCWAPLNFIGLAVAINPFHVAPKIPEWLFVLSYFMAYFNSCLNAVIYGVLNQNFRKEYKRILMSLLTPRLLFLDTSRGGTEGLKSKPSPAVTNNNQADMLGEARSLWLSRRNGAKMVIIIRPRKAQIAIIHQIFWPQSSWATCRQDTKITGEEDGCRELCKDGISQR
As to the kind of experiment: IP accumulation, melatonin Mel1c receptor coexpressed with Gα subunit in COS-7. The format is cell-based. The following applies: COS-7, receptor + Gα16; 1 μM 2-iodomelatonin.

Consider `COc1ccc2[nH]c(I)c(CCNC(C)=O)c2c1` [2-iodomelatonin], for which the “IP Formation Agonist” value is 16.1 ± 3.7.
